Melting temperature and Kd data for 3 substances are collected here from patent publication US20210061861A1, “D-PEPTIDIC COMPOUNDS FOR VEGF” (Reflexion Pharmaceuticals, Inc., priority 2019, published 2021).

The chains behind the UniProt entries cited, without tags or fusion partners. Residues count along the entry.
UniProt P15692, 214-315: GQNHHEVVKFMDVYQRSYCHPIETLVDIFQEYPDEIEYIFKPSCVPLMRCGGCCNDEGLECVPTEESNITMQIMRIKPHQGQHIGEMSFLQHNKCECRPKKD

The nature of series [1]: melting and refolding curves. Format: physicochemical. To be noted: FIG. 16. As to the method:
The melting temperature was determined to be approximately 50° C.

The target in series [2] is VEGF-A (Homo sapiens, UniProt P15692). The series can be described thus: SPR binding of D-peptidic compounds to L-VEGF-A. On the set-up: Biotinylated VEGF-A(8-109) was immobilized on a biotin CAPture chip. The note with it: read-out: VEGF Binding Affinity (KD); Table 4, D-peptidic Z and GA domains. On the technique in general: SPR reads the build-up and loss of mass on a sensor chip optically.

In the case of “tidqwllknakedaiaelkkcGitephvisfinhapyvshvnGlkanilkaha [Compound 1.1.1]”, the melting temperature entry in series [1] was “approximately 50 °C”. On to “vdnkfnkewdnawreirhlpnlnieqkrafihslyddpsqsanllaeakklndaqapk [Compound 980175]”, for which the Kd (in general, the equilibrium constant for the complex coming apart) in series [2] was determined as 110 nM. The same measure, in the same setting: the value for “vdnkfnkewdnawreirhlpnlnveqkrafikslyddpsqsanllaeakklndaqapk [Compound 980180]” was 120 nM.
